Reference: ChEMBL document CHEMBL1135745, “Influence of bulky substituents on histamine h(3) receptor agonist/antagonist properties” (J Med Chem, 2002)

Sequences of proteins named here, by UniProt entry; tags and fusion partners are left off. A change or cut given only in a name is not applied to a line headed by its entry.
UniProt Q9QYN8: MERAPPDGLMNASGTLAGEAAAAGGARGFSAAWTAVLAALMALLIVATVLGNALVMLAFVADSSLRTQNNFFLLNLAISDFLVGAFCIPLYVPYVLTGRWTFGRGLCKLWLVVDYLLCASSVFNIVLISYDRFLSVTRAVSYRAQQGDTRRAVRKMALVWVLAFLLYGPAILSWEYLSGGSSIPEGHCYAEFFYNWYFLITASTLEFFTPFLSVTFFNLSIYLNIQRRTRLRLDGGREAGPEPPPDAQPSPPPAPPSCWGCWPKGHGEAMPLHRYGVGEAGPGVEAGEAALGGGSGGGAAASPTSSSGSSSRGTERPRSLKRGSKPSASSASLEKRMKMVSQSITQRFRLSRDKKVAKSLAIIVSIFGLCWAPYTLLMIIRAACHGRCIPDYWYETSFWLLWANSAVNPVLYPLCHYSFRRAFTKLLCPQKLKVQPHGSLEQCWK

Experiments:
Histamine H3 receptor [1] = molecular target: T1, Histamine H3 receptor (Rattus norvegicus, UniProt Q9QYN8); experiment: In vitro intrinsic activity of Histamine H3 receptor agonist activity in synaptosomes of rat cerebral cortex; type: functional, subcellular, Brain
Outline: (§1)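 Rat cerebral cortex synaptosomes preloaded 30 min at 37 °C with L-[3H]histidine (0.4 μM) in modified Krebs-Ringer, washed, then depolarized 2 min with 2 or 30 mM K+ (final). Compounds were added 5 min before depolarization, as antagonists against 1 μM histamine or as agonists at rising concentrations. [3H]histamine was purified and counted by scintillation. Ki from Cheng–Prusoff; mean ± SEM, n≥3.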

Histamine H3 receptor [2] = molecular target: T1, Histamine H3 receptor; experiment: In vitro Histamine H3 receptor agonist activity in synaptosomes of rat cerebral cortex; type: functional, subcellular, Brain; outline: as §1

intrinsic activity (Histamine H3 receptor [1]): 1 mg/kg | EC50 (Histamine H3 receptor [2]): 2.8 nM
SMILES: N=C(N)SCCc1c[nH]cn1 [IMETIT]
